# OPERA 2.9 data: melting point values

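OPERA's authors assembled the values from existing databases and did not measure them anew. The files give a single number for a compound and property, which may rest on several reports. How each value was measured is not recorded, so precision varies. A value may pool stereoisomers or salt forms, and the file does not say which form was measured. Some entries may be limits or estimates that an upstream database listed as plain numbers.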

Melting points are in °C.

{"smiles": "ClCc1csc(-c2ccco2)n1", "name": "4-(chloromethyl)-2-(2-furyl)-1,3-thiazole", "mp (°C)": "77"}
{"smiles": "CC(C)Cn1cc(C(=O)O)c2ccccc21", "name": "1-(2-Methylpropyl)-1H-indole-3-carboxylic acid", "mp (°C)": "152"}
{"smiles": "Cc1csc(NC(=O)CCl)n1", "name": "2-chloro-N-(4-methyl-1,3-thiazol-2-yl)acetamide", "mp (°C)": "128"}
{"smiles": "Cc1cc(C=O)c(C)n1C(C)C", "name": "1-Isopropyl-2,5-dimethyl-1H-pyrrole-3-carbaldehyde", "mp (°C)": "46"}
{"smiles": "CCOP(=S)(OCC)Oc1ccc2c(C)cc(=O)oc2c1", "mp (°C)": "38"}
{"smiles": "NC(=O)C[S-].NC(=O)C[S-].NC(=O)C[S-].[Sb+3]", "name": "Antimony thioglycollamide", "mp (°C)": "140"}
{"smiles": "CC(C)C1(C(C)C)C(O)=NC(=O)N=C1O", "name": "BARBITURIC ACID,DI-IPR", "mp (°C)": "228"}
{"smiles": "CC(C)NC(=O)NC(=O)CCl", "name": "1-(2-chloro-acetyl)-3-isopropyl-urea", "mp (°C)": "87"}
{"smiles": "O=c1cc(CCl)occ1O", "name": "4H-Pyran-4-one, 2-(chloromethyl)-5-hydroxy-", "mp (°C)": "167"}
{"smiles": "Clc1ccc(Cl)c(-c2ccccc2Cl)c1", "name": "2,2',5-Trichlorobiphenyl", "mp (°C)": "44"}
{"smiles": "N#CCCNC(=O)CCl", "name": "Acetamide, 2-chloro-N-(2-cyanoethyl)-", "mp (°C)": "97"}
{"smiles": "O=C(c1cc(Cl)c(Cl)[nH]1)C(Cl)(Cl)Cl", "name": "2,2,2-Trichloro-1-(4,5-dichloro-1H-pyrrol-2-yl)ethan-1-one", "mp (°C)": "130"}
{"smiles": "Cc1ccc(C(=O)CCl)cc1", "name": "2-Chloro-1-(4-methylphenyl)ethan-1-one", "mp (°C)": "55"}
{"smiles": "Cc1cc(NC(=O)CCl)no1", "name": "2-chloro-N-(5-methylisoxazol-3-yl)acetamide", "mp (°C)": "186"}
{"smiles": "O=C(CCl)c1cc([N+](=O)[O-])c[nH]1", "name": "2-chloro-1-(4-nitro-1H-pyrrol-2-yl)ethanone", "mp (°C)": "200"}
{"smiles": "Cc1cccc(NC(=O)CCl)c1", "name": "2-chloro-N-(3-methylphenyl)acetamide", "mp (°C)": "129"}
{"smiles": "Clc1cc(Cl)c(-c2ccc(Cl)c(Cl)c2Cl)cc1Cl", "name": "2,2',3,4,4',5'-Hexachlorobiphenyl", "mp (°C)": "80"}
{"smiles": "COc1coc(CSP(=O)(OC)OC)cc1=O", "name": "Endothion", "mp (°C)": "90.5"}
{"smiles": "Cc1cc(C(=O)O)c(C)n1C1CCCCC1", "name": "1-Cyclohexyl-2,5-dimethyl-1H-pyrrole-3-carboxylic acid", "mp (°C)": "205"}
{"smiles": "PCCC(Cl)Cl", "name": "(3,3-Dichloropropyl)phosphane", "mp (°C)": "135.5"}
{"smiles": "O=C(CCl)c1ccc[nH]1", "name": "2-Chloro-1-(1H-pyrrol-2-yl)ethan-1-one", "mp (°C)": "115"}
{"smiles": "C[N+]1([O-])CCCC1c1cccnc1", "stereo": "stereo not drawn", "name": "3-(1-Methyl-1-oxido-2-pyrrolidinyl)pyridine", "mp (°C)": "-79"}
{"smiles": "CC(Oc1ccc(Br)cc1)C(=O)O", "stereo": "stereo not drawn", "name": "2-(4-bromophenoxy)propanoic acid", "mp (°C)": "119"}
{"smiles": "COc1ccc(OC)c(CBr)c1", "name": "2-(bromomethyl)-1,4-dimethoxybenzene", "mp (°C)": "78"}
{"smiles": "O=S(=O)(Cl)c1ccc(CBr)cc1", "name": "4-(Bromomethyl)benzenesulfonyl chloride", "mp (°C)": "73.5"}
{"smiles": "CN1CCc2cc3c(cc2C1O)OCO3", "stereo": "stereo not drawn", "name": "Hydrastinine", "mp (°C)": "116"}
{"smiles": "COc1cc(F)c(F)cc1CBr", "name": "1-(Bromomethyl)-4,5-difluoro-2-methoxybenzene", "mp (°C)": "41.5"}
{"smiles": "Cc1nn(Cc2ccccc2)c(C)c1C(=O)O", "name": "1-Benzyl-3,5-dimethyl-1H-pyrazole-4-carboxylic acid", "mp (°C)": "138"}
{"smiles": "CCOP(=S)(OCC)N1C(=O)c2ccccc2C1=O", "name": "Ditalimfos", "mp (°C)": "82"}
{"smiles": "CCCCCO[N+](=O)[O-]", "name": "Amyl nitrate", "mp (°C)": "-123.3"}
{"smiles": "N#Cc1ccc(C(F)(F)F)cc1Cl", "name": "2-Chloro-4-(trifluoromethyl)benzonitrile", "mp (°C)": "82.5"}
{"smiles": "C[Se]C", "name": "Methane, selenobis-", "mp (°C)": "-87.2"}

2 of these entries, quoted again:

{"smiles": "Clc1cc(Cl)c(-c2ccc(Cl)c(Cl)c2Cl)cc1Cl", "name": "2,2',3,4,4',5'-Hexachlorobiphenyl", "mp (°C)": "80"}
{"smiles": "O=C(CCl)c1cc([N+](=O)[O-])c[nH]1", "name": "2-chloro-1-(4-nitro-1H-pyrrol-2-yl)ethanone", "mp (°C)": "200"}

Values as listed in the OPERA 2.9 repository of K. Mansouri.